Assay: Water solubility determination by quantitative 1H-NMR in D2O
Assay type: physicochemical
Conditions: qNMR in D2O, pH 8.0-8.5 (NaOD), room temperature, potassium hydrogen phthalate external standard
Excerpt: The obtained PCT-derived sodium phosphonates were subjected to water solubility tests (Table 3). For this purpose, we used a quantitative ^1H-NMR approach in D2O, using potassium hydrogen phthalate as an external standard (for experimental details see Supporting Information). The presence of the basic forms of phosphonates[80] was ensured by the careful addition of NaOD, maintaining pH 8.0–8.5 during the quantification, which is 2–3 units higher than the pKa of phosphonic acid disalt. […] This is by at least two to three orders of magnitude higher than the reported solubilities of the parent natural triterpenic acids. […] Indeed, phosphonic acids are more acidic and easier ionizable than carboxylic acids. This ionic character helps to increase the aqueous solubility as exemplified by here described compounds.
Water solubility determination
To suspension of PCT phosphonate sample (10 mg) in D2O (500 µL) 0.8% solution of NaOD in D2O was added dropwise until pH = 8-8.5 (<100 µL). Obtained suspension was sonified in ultrasonic bath for 10 min. Undissolved particles were separated by centrifugation. Clear D2O solution was carefully transferred to NMR tube equipped with external standard vial.
Formula (1) was used to determine the solubility of PCT sample in the D2O.
[…]
SolPCT - solubility of PCT sample in D2O at room temperature (mg/mL) […]

Substance: Sodium (3-oxo-(17R)-17-28-norlup-20(29)-en)-2-oxoethyl-phosphonate [7a]
- Aqueous solubility in D2O at pH 8.0…8.5: 11 mg/mL

Source: article PMC11564732, “Synthesis and preliminary cytotoxicity evaluation of water soluble pentacyclic triterpenoid phosphonates” (Scientific Reports, 2024)
